Measured values taken from BindingDB's records for 40068406.

Chains of the proteins cited; added tags and fusions are not shown.
UniProt P41145, whole entry: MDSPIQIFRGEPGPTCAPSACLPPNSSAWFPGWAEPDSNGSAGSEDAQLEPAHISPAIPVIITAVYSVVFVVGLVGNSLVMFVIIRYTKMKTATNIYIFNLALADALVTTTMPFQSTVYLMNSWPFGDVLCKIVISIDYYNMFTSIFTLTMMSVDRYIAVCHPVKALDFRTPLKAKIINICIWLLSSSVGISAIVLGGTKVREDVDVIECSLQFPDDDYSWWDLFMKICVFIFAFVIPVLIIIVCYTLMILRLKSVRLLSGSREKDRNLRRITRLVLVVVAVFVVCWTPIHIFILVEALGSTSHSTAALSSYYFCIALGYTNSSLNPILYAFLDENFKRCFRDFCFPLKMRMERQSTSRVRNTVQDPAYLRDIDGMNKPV

Biological target: Kappa-type opioid receptor (Homo sapiens, UniProt P41145)
Assay: Binding affinity to KOR (unknown origin) assessed as inhibition constant

SMILES: COc1ccc2c3c1O[C@H]1[C@@]4(OC)C=C[C@@]5(C[C@@H]4C(=O)c4ccc(NC(=O)c6ccccc6)cc4)[C@@H](C2)N(CC2CC2)CC[C@]315
- Ki: > 10 µM
